Target: calcium channels (e.g., Cav2.2 subfamily) (Rattus norvegicus, UniProt Q02294)
Assay: Oocyte assay (Xenopus oocyte heterologous expression system)
Type: cell-based
Details: modulation of calcium channel
Method: Representative compounds of the formulae herein are screened for activity against calcium channel targets in an assay essentially as described in Neuron January 1997, 18(11): 153-166, Lin et. al.; J. Neurosci. Jul. 1, 2000,20(13):4768-75, J. Pan and D. Lipsombe; and J. Neurosci., Aug. 15, 2001, 21(16):5944-5951, W. Xu and D. Lipscombe, using Xenopus oocyte heterologeous expression system. The assay is performed on various calcium channels (e.g., Cav2.2subfamily) whereby the modulation of the calcium channel is measured for each compound. Table 2 contains IC50's for representative compounds disclosed in the invention.

By UniProt entry, the sequences of proteins in these tests, tags left out.
UniProt Q02294, whole entry: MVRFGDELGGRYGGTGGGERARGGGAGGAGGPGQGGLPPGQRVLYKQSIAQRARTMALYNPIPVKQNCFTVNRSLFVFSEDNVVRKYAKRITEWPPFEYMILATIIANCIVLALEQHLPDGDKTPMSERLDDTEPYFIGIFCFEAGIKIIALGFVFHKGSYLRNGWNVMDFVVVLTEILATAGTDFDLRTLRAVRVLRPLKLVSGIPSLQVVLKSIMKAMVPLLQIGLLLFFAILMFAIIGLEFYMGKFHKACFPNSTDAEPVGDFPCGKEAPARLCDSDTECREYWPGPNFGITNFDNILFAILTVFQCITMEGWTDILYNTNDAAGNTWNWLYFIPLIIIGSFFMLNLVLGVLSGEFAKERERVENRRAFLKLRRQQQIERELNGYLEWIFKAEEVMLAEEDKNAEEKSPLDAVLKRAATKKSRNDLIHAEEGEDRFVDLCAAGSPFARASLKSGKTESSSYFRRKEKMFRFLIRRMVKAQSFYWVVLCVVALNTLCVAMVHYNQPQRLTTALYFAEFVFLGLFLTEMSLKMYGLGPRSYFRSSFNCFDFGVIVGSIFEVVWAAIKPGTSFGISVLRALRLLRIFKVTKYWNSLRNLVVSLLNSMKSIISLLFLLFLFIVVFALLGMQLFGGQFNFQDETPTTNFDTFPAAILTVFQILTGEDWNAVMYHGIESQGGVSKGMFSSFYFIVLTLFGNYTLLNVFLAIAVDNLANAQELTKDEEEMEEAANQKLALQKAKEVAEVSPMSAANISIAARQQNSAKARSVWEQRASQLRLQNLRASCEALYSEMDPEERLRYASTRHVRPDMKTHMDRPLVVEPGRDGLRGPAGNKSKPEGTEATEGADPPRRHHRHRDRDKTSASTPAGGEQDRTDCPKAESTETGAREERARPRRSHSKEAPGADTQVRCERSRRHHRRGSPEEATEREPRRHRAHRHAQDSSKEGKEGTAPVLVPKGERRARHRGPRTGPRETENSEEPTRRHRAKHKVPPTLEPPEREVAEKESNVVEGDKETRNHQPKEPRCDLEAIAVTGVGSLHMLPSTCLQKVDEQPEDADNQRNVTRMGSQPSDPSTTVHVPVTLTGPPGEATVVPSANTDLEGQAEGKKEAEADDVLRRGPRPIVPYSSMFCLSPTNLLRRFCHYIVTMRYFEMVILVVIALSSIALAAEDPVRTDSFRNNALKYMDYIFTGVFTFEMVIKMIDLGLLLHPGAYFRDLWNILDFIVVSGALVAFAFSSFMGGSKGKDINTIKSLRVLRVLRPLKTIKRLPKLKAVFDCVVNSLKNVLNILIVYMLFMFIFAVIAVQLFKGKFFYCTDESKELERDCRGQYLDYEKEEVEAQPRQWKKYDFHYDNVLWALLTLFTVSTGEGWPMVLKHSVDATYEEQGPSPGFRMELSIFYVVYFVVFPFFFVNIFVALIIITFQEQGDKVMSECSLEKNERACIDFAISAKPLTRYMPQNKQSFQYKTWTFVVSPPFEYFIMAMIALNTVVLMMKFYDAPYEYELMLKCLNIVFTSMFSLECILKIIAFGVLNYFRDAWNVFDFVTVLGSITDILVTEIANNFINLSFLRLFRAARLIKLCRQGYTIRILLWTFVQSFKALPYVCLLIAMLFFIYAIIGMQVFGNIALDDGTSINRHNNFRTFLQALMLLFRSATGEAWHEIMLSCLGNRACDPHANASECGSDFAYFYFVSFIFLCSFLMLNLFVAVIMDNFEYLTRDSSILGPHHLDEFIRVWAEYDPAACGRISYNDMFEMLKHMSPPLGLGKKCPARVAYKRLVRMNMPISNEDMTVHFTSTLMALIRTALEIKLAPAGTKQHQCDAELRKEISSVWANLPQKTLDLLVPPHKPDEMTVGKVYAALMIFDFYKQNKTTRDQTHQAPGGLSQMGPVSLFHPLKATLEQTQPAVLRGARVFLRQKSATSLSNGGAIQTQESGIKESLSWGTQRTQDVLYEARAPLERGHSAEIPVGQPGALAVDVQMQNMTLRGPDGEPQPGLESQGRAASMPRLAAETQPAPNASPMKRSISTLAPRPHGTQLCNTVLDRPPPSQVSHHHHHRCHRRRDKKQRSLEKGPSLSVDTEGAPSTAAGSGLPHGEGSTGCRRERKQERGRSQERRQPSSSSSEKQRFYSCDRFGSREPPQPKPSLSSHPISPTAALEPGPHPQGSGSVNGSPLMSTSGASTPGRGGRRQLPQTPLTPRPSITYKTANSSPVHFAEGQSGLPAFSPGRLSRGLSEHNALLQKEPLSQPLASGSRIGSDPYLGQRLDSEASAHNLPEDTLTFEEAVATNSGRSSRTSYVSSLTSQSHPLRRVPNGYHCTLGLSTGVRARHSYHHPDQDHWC
UniProt P54287, whole entry partner: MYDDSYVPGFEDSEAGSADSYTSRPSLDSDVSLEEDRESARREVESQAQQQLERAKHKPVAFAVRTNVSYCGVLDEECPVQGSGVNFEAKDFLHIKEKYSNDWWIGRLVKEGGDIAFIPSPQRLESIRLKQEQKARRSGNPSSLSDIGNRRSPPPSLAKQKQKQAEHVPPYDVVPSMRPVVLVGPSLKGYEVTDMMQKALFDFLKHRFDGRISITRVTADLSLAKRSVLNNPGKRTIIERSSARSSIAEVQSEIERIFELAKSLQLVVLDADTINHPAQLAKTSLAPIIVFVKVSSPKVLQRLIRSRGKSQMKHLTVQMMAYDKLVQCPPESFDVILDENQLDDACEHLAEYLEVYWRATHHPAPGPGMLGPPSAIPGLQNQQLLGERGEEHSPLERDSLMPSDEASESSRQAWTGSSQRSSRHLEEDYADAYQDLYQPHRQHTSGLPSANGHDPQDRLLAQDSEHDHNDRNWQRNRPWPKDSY

An IC50 of 3.8 µM was found for `Fc1ccc(Cc2nc(CNc3ccc(F)cc3)cn2-c2ccc(Cl)cc2)cc1` in this work.

Source: US20080242716A1, “Ion Channel Modulators” (priority 2004, published 2008)
